Measurements from article PMC7508583, “Discovery and Preclinical Development of Antigiardiasis Fumagillol Derivatives” (Antimicrobial Agents and Chemotherapy, 2020).

Protein sequences, listed by entry. Tags and fused reporters are not part of them. Lines headed by an entry give the natural chain unless they say otherwise; changes in a name come on top.
UniProt P50579: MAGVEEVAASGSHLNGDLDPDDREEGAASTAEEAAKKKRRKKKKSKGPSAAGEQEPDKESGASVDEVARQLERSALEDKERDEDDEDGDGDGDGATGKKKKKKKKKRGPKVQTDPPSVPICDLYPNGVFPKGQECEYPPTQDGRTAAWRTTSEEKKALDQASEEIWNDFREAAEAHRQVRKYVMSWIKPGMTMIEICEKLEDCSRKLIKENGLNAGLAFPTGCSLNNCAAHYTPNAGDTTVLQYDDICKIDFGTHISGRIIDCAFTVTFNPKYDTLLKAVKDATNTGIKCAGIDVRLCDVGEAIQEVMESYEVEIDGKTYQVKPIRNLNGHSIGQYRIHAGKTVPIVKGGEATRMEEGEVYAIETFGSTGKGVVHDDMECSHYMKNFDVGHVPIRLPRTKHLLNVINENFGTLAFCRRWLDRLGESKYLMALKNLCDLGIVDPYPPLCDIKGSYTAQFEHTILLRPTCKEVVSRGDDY

Assays:
[1] = test system: G. lamblia GS trophozoites; test: Trophozoite viability MLC determination; format: cell-based, Giardia lamblia
Description: The inhibition of metabolism enables the organism to resume proliferation once treatment is completed. To discriminate between the lethality of the promising compounds and the induction of metabolic inactivity by the promising compounds, the minimum lethal concentration (MLC) values were determined by treating the trophozoites with the test compounds for 3 days and transferring the resulting cultures to medium lacking the compounds for 3 days of proliferation. This assay was described previously for G. lamblia ([18]) and was adapted to E. histolytica in the current study.
Trophozoites of G. lamblia isolates WB and GS were grown anaerobically in borosilicate glass screw-cap culture tubes (Fisher Scientific) at pH 7.0 in Keister’s modified TYI-S-33 medium (ATCC). The medium was supplemented with 10% heat-inactivated bovine serum (Sigma-Aldrich) and 0.05% bovine bile (Sigma-Aldrich). To attain low-oxygen-tension conditions, the tubes were filled to 85% to 90% of their total volume capacity and incubated without shaking at 37°C. Subcultures (2 × 10^5 trophozoites per tube) were made three times a week. Detachment of trophozoites for inoculation was achieved by chilling the cultures on ice for 20 min. […]

human MetAP2 = biological target: T1, human MetAP2 (Homo sapiens, UniProt P50579); test: MetAP2 fluorescence assay; format: biochemical
T1 construct: purchased Bio-Techne/R&D Systems
Description: Based on the available crystal structures of MetAP2 complexes, the fumagillol core binds in a crowded environment, forming exquisite electrostatic interactions. Therefore, there is little room for the core fumagillol scaffold to adopt a different mode of binding. In contrast, the R group at C-6 can vary substantially because it is mostly solvent exposed. The L groups bind in a narrow site at the active-site entrance.
Recombinant human MetAP2 (Bio-Techne/R&D Systems) was diluted to 10 μg/ml in the assay buffer (50 mM HEPES, 0.1 mM CoCl2, 100 mM NaCl, pH 7.5). The substrate H-Met-Gly-Pro-7-amido-4-methylcoumarin (Bio-Techne/R&D Systems) was diluted to 500 μM with 2 μg/ml of the coupling enzyme, recombinant human dipeptidyl peptidase 4 (Bio-Techne/R&D Systems), in assay buffer. Fifty microliters of 10-μg/ml recombinant human MetAP2 was loaded into a flat-bottom black 96-well plate (Greiner Bio), and the reaction was initiated by adding 50 μl of the substrate/dipeptidyl peptidase 4 mixture. The reaction mixture was incubated at room temperature for 10 min, and the fluorescence was measured for 5 min at excitation and emission wavelengths of 380 nm and 460 nm, respectively, in the kinetic mode. For IC50 determination, 0.5 μl inhibitor solution was added to the reaction mixture. […]

in vitro = conditions: human, Caco-2, pH 7.4
From the text: Next, we tested the permeation of the compounds across polarized Caco-2 cell monolayers, a method that is widely used as an in vitro model of the human small intestinal mucosa to predict the absorption of orally administered drugs ([63], [64]). With noninvasive intestinal infections, there is no need to establish a high plasma concentration. Since a high rate of uptake through the host gut lining could increase compound toxicity, we sought to reduce gut absorption. […] Both apical-to-basal and basal-to-apical permeation values were measured to obtain information about efflux. […] The efflux machinery is currently unknown.
Passage 36 Caco-2 cells were used. […]
For sample processing, a single-point calibration curve in HBSS buffer with 2% BSA was used. […] One hundred microliters of the supernatant was diluted with 200 μl of water and analyzed by LC-MS/MS (with a Shimadzu ultrafast liquid chromatograph and an API 4000 LC-MS/MS system).
The apparent permeation coefficients (Papp) were calculated as Papp = (dQ/dT) × (1/C0) × (1/A), where dQ is the amount permeated to the receiver compartment of the 96-well plate, dT is the time of compound incubation, C0 is the initial compound concentration in the donor compartment of the well, and A is the surface area of the monolayer.

[2] = test system: G. lamblia GS trophozoites; test: Mouse giardiasis model efficacy; format: in vivo, Giardia lamblia
Description: The C57BL/6J mice were infected with G. lamblia GS trophozoites, treated for 4 days, and euthanized as described in Materials and Methods.
Compound efficacy was evaluated in the mature mouse giardiasis model reported previously ([18], [66]). Fifteen 4-week-old C57BL/6J female mice (The Jackson Laboratory, Bar Harbor, ME) were infected with G. lamblia GS or H7 trophozoites. For each experiment, the trophozoites (500,000 trophozoites suspended in 200 μl of TYI-S-33 medium) were administered by oral gavage to 15 mice. […] The remaining 5 untreated mice served as controls. The compounds were administered by oral gavage in 200 μl of TYI-S-33 medium supplemented with 0.5% DMSO. All mice were euthanized on day 7. […]
Two inches of the upper small intestine were dissected and washed with 2 ml of medium supplemented with antibiotics to produce axenized cultures (1 mg/ml each piperacillin and moxalactam and 10 μg/ml each vancomycin and polymyxin B, which is a modified mixture compared with that used earlier). […] Trophozoite growth was determined once daily by monitoring the ATP content using the ATPlite reagent.
The proliferation measurements were used to calculate growth curves and the trophozoite load of drug-treated mice compared with that of untreated mice. […] The percentage of the load relative to the N0 for untreated mouse samples was determined. […]

[3] = Single-dose acute toxicity (MTD) and histopathology
Description: The tissues of three surviving mice were analyzed along with the tissues of three animals treated with the vehicle alone. […] Based on these findings, the maximum tolerated dose (MTD) value was determined to be 1,500 mg/kg.
The maximum tolerated dose (MTD) determination was performed using 8- to 10-week-old C57BL/6 female mice in five groups of 6 animals each. The mice were acclimated to the study room for a week. Animals were randomized by body weight prior to being assigned to dosage groups at the outset of the study. […] Following an up-down dosing strategy, the clinical signs and body weights of the animals in a study group were evaluated daily for 5 days before escalating or reducing the dose administered to the next group, as appropriate. The clinical observations included posture, vocalization, ease of handling, lacrimation, chromodacryorrhea, salivation, coat appearance, rearing frequency, transfer arousal, piloerection, motor movements, tail pinch, and diarrhea.
The histopathology examination included 3 mice that survived treatment with the 2,000-mg/kg dose and 3 mice that received the vehicle alone. Brain, heart, lung, spleen, and liver tissues were examined. Formalin-fixed tissues were embedded in paraffin to produce 4-μm-thick sections. The paraffin wax was removed, and the tissues were stained with Gill’s hematoxylin for 5 to 10 min. […]

For `CO[C@@H]1[C@H](OC(=O)Nc2ccc(C(=O)O)cc2)CC[C@]2(CO2)[C@H]1[C@@]1(C)O[C@@H]1CC=C(C)C` [Compound 9, 4-(((((3R,4S,5S,6R)-5-methoxy-4-((2R,3R)-2-methyl-3-(3-methylbut-2-en-1-yl)oxiran-2-yl)-1-oxaspiro[2.5]octan-6-yl)oxy)carbonyl)amino)benzoic acid], which “fold improved MLCs compared with the MLC of fumagillin” value [1] is on record?
The value was ~100 fold.

And the “IC50 of compound/IC50 of fumagillin” value (human MetAP2)?
Its value is 2.75.

What about the efflux ratio at 120 min, 10 µM (in vitro) of the same compound?
Its efflux ratio at 120 min, 10 µM is 1.9.

And the “fold lower ED50 than fumagillin” value [2]?
Its value is 4 fold.

What about the “MTD relative to fully curative dose” value ([3]; 1,500 mg/kg vs 6.6 mg/kg) of the same compound?
Its value is 227 fold.

And the “therapeutic index LD50/ED50” value ([3]; 2,000/0.064)?
The value was > 31,250.
